The source of these data is publication PMC7436049, “Combining In Silico and In Vitro Studies to Evaluate the Acetylcholinesterase Inhibitory Profile of Different Accessions and the Biomarker Triterpenes of Centella asiatica” (Molecules, 2020).

Protein sequences, listed by entry. Tags and fused reporters are not part of them. Residues count along the entry.
UniProt O42275, 24-633: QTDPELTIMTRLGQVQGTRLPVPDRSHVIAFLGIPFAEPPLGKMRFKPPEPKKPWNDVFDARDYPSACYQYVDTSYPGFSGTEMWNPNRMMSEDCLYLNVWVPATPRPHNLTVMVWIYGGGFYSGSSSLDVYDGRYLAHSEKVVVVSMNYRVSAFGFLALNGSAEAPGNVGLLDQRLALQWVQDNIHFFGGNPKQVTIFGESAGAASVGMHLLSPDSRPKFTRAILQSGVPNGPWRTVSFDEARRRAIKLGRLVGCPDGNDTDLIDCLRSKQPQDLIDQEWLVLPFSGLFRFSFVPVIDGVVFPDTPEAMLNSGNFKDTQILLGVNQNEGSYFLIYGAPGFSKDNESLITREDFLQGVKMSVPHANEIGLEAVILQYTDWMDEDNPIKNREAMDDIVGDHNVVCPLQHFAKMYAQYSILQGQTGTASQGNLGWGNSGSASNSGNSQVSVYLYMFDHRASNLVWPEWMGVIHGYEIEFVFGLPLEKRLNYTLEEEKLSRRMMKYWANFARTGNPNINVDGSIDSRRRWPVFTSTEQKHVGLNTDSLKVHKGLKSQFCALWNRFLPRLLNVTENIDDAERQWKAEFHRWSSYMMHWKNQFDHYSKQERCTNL

For this assay, the target named is T1, acetylcholinesterase from electrophorus electricus (Electrophorus electricus, UniProt O42275).
T1 construct: purchased Sigma–Aldrich (St. Louis, MO, USA)
The class given is biochemical. To be noted: Ellman's method, 412 nm, mean ± SEM, triplicates. How it is done: All solvents were HPLC grade, purchased from Merck (Darmstadt, Germany). […] Sodium monobasic […] were purchased from Merck (Darmstadt, Germany), and acetylcholinesterase from electrophorus electricus, 5,5′-Dithiobis (2-nitrobenzoic acid), and […] were obtained from Sigma–Aldrich (St. Louis, MO, USA).
The AChE inhibitory activity was evaluated using Ellman’s method, as reported previously. Each sample (20 µL of 5 mg/mL in DMSO) was dispensed in triplicate into a 96-well microplate and mixed with 190 µL of DTNB, 20 µL of substrate (ATCI). The control wells contained 2% of DMSO instead of the extract. The enzymatic activity was measured at 412 nm every 30 s intervals for 3 min. The buffer solution was used as negative control.
The percentage inhibition (%I) of each sample and the positive control (physostigmine) was calculated using the formula:%I: [(Ac − As)/(Ac)] × 100(1) where (%I): Percentage inhibition • Ac: Absorbance of negative control • As: Absorbance of sample
The experiments were expressed as the mean ± standard error of the mean (SEM) in triplicates.

Consider asiaticoside, for which the “AChE inhibitory activity, IC50 Values” is on record as 59.13 ± 0.18 µg/mL.
